These are literature values, as cited in patent US20120283283A1, “METHODS FOR DETECTING ENHANCED RISK OF OPIOID-INDUCED HYPOXIA IN A PATIENT” (priority 2011, published 2012).

The data set relates to subjects with normal baseline oxygen saturation levels. Particulars: 2 mg intravenously in a 2-3 minute period; cited from earlier work.

For `CN1CC[C@]23c4c5ccc(O)c4O[C@H]2C(=O)CC[C@H]3[C@H]1C5` [hydromorphone], the “subjects with recorded oxygen saturation levels of less than 90%” value is listed as 6%.
